Experimental data: patent US20240182456A1, “2-((4-((S)-2-(4-CHLORO-2-FLUOROPHENYL)-2-METHYLBENZO[D][1,3]DIOXOL-4-YL)PIPERIDIN-1-YL)METHYL)-1-(((S)-OXETAN-2-YL)METHYL)-1H-IMIDAZOLE DERIVATIVES AS ACTIVATORS OF THE GLP1 RECEPTOR FOR THE TREATMENT OF OBESITY” (Novartis AG, priority 2021, published 2024)

Protein sequences, listed by entry. Tags and fused reporters are not part of them. Residues count along the entry.
UniProt P43220, 24-463 limits assumed: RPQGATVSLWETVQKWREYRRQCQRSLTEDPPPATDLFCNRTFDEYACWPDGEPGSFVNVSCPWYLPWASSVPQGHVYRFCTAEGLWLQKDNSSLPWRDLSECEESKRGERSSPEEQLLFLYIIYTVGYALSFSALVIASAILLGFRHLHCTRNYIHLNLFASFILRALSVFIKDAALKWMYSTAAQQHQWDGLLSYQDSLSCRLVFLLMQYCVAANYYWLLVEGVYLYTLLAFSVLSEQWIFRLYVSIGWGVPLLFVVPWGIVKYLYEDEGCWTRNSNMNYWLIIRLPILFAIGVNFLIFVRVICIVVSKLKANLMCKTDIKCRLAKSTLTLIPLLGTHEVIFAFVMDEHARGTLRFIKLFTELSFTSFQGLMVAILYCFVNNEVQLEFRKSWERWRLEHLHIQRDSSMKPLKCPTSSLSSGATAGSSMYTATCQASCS

Legend:
human GLP1R (hGLP1R) = human GLP1R (hGLP1R) (Homo sapiens, UniProt P43220); assay: Human GLP1R cAMP agonist assay (GloSensor); type: cell-based; conditions: HEK293-SNAP-hGLP1R-GloSensor cells
Procedure: Compounds 1 to 31 were tested in the following cellular assays that measure the intracellular cAMP concentration, beta-arrestin recruitment and receptor internalization. The cAMP is generated by the activation of GLP1R. The cAMP data obtained is shown in Table 1 (where S.E.M. is included, mean n=3 independent experiments+/−S.E.M). Beta-arrestin is recruited upon activation of GLP1R and the data obtained are shown in Table 2 (mean n=2 independent experiments, +/−S.D). The extent to which the GLP1R is internalized into the cell and away from the plasma membrane following activation is also shown in Table 2 (mean n=2 independent experiments, +/−S.D). EC50 for each assay is defined as the concentration of the compound that leads to half of the maximum response (after baseline correction). […]
The agonist activity of compounds was determined using the GloSensor™ cAMP Assay (Promega Corp.), which measures changes in the intracellular concentration of cAMP after ligand activation of GPCRs. […] Binding to cAMP causes conformational changes that promote large increases in light output, which can be measured by a luminescence detector. […] The EC50 value was represented by the AC50 value calculated from Helios in μM. Emax is the maximal activity detected within the concentration range, derived from the fitted curve. […]

human GLP1R = human GLP1R (Homo sapiens, UniProt P43220); assay: Human GLP1R DERET internalization assay; conditions: HEK293-SNAP-hGLP1R-GloSensor cells

Q: What does the source list for `Cc1nc(CN2CCC(c3cccc4c3OC(C)(c3ccc(Cl)cc3F)C4)CC2)n(C[C@@H]2CCO2)c1/C=C/C(=O)O` (single isomer, unassigned)?
A: Emax mean (human GLP1R (hGLP1R); cAMP, normalized to GLP1(7-36) maximum response): 104%; EC50 (human GLP1R (hGLP1R); read-out: EC50 mean, intracellular cAMP, mean n=3 where SEM is given): 1.69 nM; DERET Internalization assay Emax (human GLP1R; relative to GLP1(7-36)): 2%; EC50 (human GLP1R; read-out: DERET Internalization assay EC50 Mean, mean n=2): > 30000 nM
